The values that follow come from patent publication US10557853B2 (priority 2012, dated 2020).

SMILES strings stand for the structures.

In this experiment the test system is serum proteins (lysozyme, PDGF-BB, FGF-21, fibrinogen, transferrin, HSA). The note with it: 1-2 μM serum proteins.
`C=C(CC)C(=O)c1ccc(OCC(=O)NCCCn2cc(CNC(=O)OCCCN3C=C/C(=C\c4sc5ccccc5[n+]4CCCOC(=O)NCc4cn(CCCNC(=O)COc5ccc(C(=O)C(=C)CC)c(Cl)c5Cl)nn4)c4ccccc43)nn2)c(Cl)c1Cl` [sensor 14]: the “fluorescence response to a large excess of other proteins” value (shortened to “fluorescence response to a large excess”) is listed as “do not respond”.
Consider `O=C(CCCCC1SCC2NC(=O)NC21)NCCOCCOCCNC(=O)CCN1C=C/C(=C\c2sc3ccccc3[n+]2CCC(=O)NCCOCCOCCNC(=O)CCCCC2SCC3NC(=O)NC32)c2ccccc21.[I-]` (stereo not shown) [sensor 34], for which the “fluorescence response to a large excess” value was “do not respond”.
With `O=C(CCN1C=C/C(=C\c2sc3ccccc3[n+]2CCC(=O)NCCCCCCNc2c3c(nc4ccccc24)CCCC3)c2ccccc21)NCCCCCCNc1c2c(nc3ccccc13)CCCC2.[I-]` [sensor 36], the “fluorescence response to a large excess” value is “do not respond”.
The same measure for `C=C(CC)C(=O)c1ccc(OCC(=O)NCCNC(=O)CCN2C=C/C(=C\c3sc4ccccc4[n+]3CCC(=O)NCCNC(=O)COc3ccc(C(=O)C(=C)CC)c(Cl)c3Cl)c3ccccc32)c(Cl)c1Cl` [sensor 140, (E)-3-(3-((2-(2-(2,3-dichloro-4-(2-methylenebutanoyl)phenoxy)acetamido)ethyl)amino)-3-oxopropyl)-2-((1-(3-((2-(2-(2,3-dichloro-4-(2-methylenebutanoyl)phenoxy)acetamido)ethyl)amino)-3-oxopropyl)quinolin-4(1H)-ylidene)methyl)benzoidithiazol-3-ium iodide]: “do not respond”.
